According to patent US10406239B2, “Water-soluble docetaxel anticancer drug compound and preparation method and use thereof” (NANJING YOUYI MEDICAL TECHNOLOGY CO., LTD, priority 2015, dated 2019):

Experiments:
[1] = pH 7.40, 37° C.

Q: For “Polyethylene Glycol Monomethyl Ether (Mn=1000) Docetaxel-2′-Diglycolate [XBB-023]”, which “Percentage content of XBB-023 after the hydrolysis of XBB-023” value ([1]; hydrolysis time 0 hr) is on record?
A: 98.489 Area %

Q: And the “Percentage content of docetaxel after the hydrolysis of XBB-023” value (shortened to “Percentage content of docetaxel”) ([1]; hydrolysis time 0 hr)?
A: 0.151 Area %

Q: And the “Percentage content of XBB-023 after the hydrolysis of XBB-023” value ([1]; hydrolysis time 1 hr)?
A: 89.088 Area %

Q: And the “Percentage content of docetaxel” value ([1]; hydrolysis time 1 hr)?
A: 8.764 Area %

Q: What about the “Percentage content of XBB-023 after the hydrolysis of XBB-023” value ([1]; hydrolysis time 2 hr) of the same substance?
A: 81.724 Area %

Q: What about the “Percentage content of docetaxel” value ([1]; hydrolysis time 2 hr) of the same substance?
A: 15.654 Area %

Q: And the “Percentage content of XBB-023 after the hydrolysis of XBB-023” value ([1]; hydrolysis time 5 hr)?
A: 58.427 Area %

Q: What about the “Percentage content of docetaxel” value ([1]; hydrolysis time 5 hr) of the same substance?
A: 34.732 Area %

Q: And the “Percentage content of XBB-023 after the hydrolysis of XBB-023” value ([1]; hydrolysis time 6 hr)?
A: 50.359 Area %

Q: And the “Percentage content of docetaxel” value ([1]; hydrolysis time 6 hr)?
A: 41.899 Area %

Q: And the “Percentage content of XBB-023 after the hydrolysis of XBB-023” value ([1]; hydrolysis time 7 hr)?
A: 44.823 Area %

Q: And the “Percentage content of docetaxel” value ([1]; hydrolysis time 7 hr)?
A: 46.871 Area %

Q: And the “Percentage content of XBB-023 after the hydrolysis of XBB-023” value ([1]; hydrolysis time 25 hr)?
A: 13.289 Area %

Q: And the “Percentage content of docetaxel” value ([1]; hydrolysis time 25 hr)?
A: 70.097 Area %

Q: What about the “Percentage content of XBB-023 after the hydrolysis of XBB-023” value ([1]; hydrolysis time 31 hr) of the same substance?
A: 10.279 Area %

Q: What about the “Percentage content of docetaxel” value ([1]; hydrolysis time 31 hr) of the same substance?
A: 70.969 Area %

Q: And the “Percentage content of XBB-023 after the hydrolysis of XBB-023” value ([1]; hydrolysis time 48 hr)?
A: 6.213 Area %

Q: What about the “Percentage content of docetaxel” value ([1]; hydrolysis time 48 hr) of the same substance?
A: 73.189 Area %

Q: And the “Percentage content of XBB-023 after the hydrolysis of XBB-023” value ([1]; hydrolysis time 55 hr)?
A: 5.384 Area %

Q: What about the “Percentage content of docetaxel” value ([1]; hydrolysis time 55 hr) of the same substance?
A: 74.509 Area %

Q: What about the “Percentage content of XBB-023 after the hydrolysis of XBB-023” value ([1]; hydrolysis time 72 hr) of the same substance?
A: 4.156 Area %

Q: And the “Percentage content of docetaxel” value ([1]; hydrolysis time 72 hr)?
A: 74.38 Area %

Q: And the “Percentage content of XBB-023 after the hydrolysis of XBB-023” value ([1]; hydrolysis time 79 hr)?
A: 3.861 Area %

Q: What about the “Percentage content of docetaxel” value ([1]; hydrolysis time 79 hr) of the same substance?
A: 75.506 Area %

Q: What about the “Percentage content of XBB-023 after the hydrolysis of XBB-023” value ([1]; hydrolysis time 103 hr) of the same substance?
A: 3.299 Area %

Q: And the “Percentage content of docetaxel” value ([1]; hydrolysis time 103 hr)?
A: 75.61 Area %

Q: And the “Percentage content of XBB-023 after the hydrolysis of XBB-023” value ([1]; hydrolysis time 168 hr)?
A: 1.721 Area %

Q: What about the “Percentage content of docetaxel” value ([1]; hydrolysis time 168 hr) of the same substance?
A: 74.708 Area %

Q: And the average particle size (aqueous XBB-023 solution 2.5 mg/mL)?
A: 101.2 nm

Q: What about the average particle size (aqueous XBB-023 solution 5 mg/mL) of the same substance?
A: 345.0 nm

Where two headings read alike, the source gives them in different places.
